# AlphaSeq binding of Ab-95 light chain variants to a spike HR2 peptide

From the AlphaSeq antibody data of Engelhart et al. 2022 (doi:10.1038/s41597-022-01779-4), copy in the FLAb collection.

Antigen: PDVDLGDISGINAS, a 14-residue peptide of the SARS-CoV-2 spike HR2 region.

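The parent was found by panning a naive human phage display library on the peptide. In library AAYL52, one, two or three CDR residues were substituted; doubles and triples were drawn at random. AlphaSeq pools MATa yeast showing the antibodies with MATalpha yeast showing the peptide. The frequency of each diploid, read from paired DNA barcodes, reflects how well the two displayed proteins bind. A regression on co-assayed BCL2-family reference pairs converts the normalised counts of each replicate to an apparent Kd. The assay was run in three technical replicates.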

Each scFv is VH, the linker GGGGSGGGGSGGGGS, VL, as in the parent Ab-95, and differs from it in the CDRs of the light chain only.
VH: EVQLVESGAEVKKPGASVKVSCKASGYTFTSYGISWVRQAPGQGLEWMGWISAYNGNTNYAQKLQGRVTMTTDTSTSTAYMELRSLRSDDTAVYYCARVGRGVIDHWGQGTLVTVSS
VL: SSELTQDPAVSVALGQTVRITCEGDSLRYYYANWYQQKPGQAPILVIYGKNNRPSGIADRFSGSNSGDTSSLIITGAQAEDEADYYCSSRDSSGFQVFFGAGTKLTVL

Changes read parent residue, position, new residue, counted from the first residue of the VL shown.
This list gathers variants with a substitution at D91 (VL, numbered from residue 1).
Numbers give log10(Kd / nM), so 0 is 1 nM and 3 is 1 µM. Smaller is tighter.
Averages over replicates are reported, and they cover detected replicates only.
"ND" marks a missing value. The strain was present, yet no cells mated with the target were sequenced in that replicate, which points to weak or no binding.
The list is sorted by this average, lowest first, undetected variants last.
As a blank, each scFv also met three strains without target: over library AAYL52, 28% of these pairings were detected, typically at 3.91 and seldom below 2.90. For each scFv, signals with the empty controls are counted beside the result.

The variant Y30T+D91L+G94E showed 2.17, 1.82, 1.10 (mean 1.70; controls 1 of 9). With N52T+D91N+V97G the result was 2.05, 1.98, 2.10 (mean 2.04; controls 5 of 9). For S89C+D91Y+V97F, the assay gave 2.20, 2.31, 1.93 (mean 2.15; controls 4 of 9). The variant S55G+D91W+G94I showed 2.52, 3.10, 1.61 (mean 2.41; controls 2 of 9). For Y30T+N33Q+D91C, the assay gave 2.37, 3.22, 1.77 (mean 2.45; controls 5 of 9). The variant Y30G+N52D+D91Q showed 2.86, 2.27, 2.35 (mean 2.49; controls 3 of 9). For S26T+Y29K+D91H, the assay gave 3.22, 2.96, 2.09 (mean 2.76; controls 2 of 9). For E23N+S88W+D91K, the assay gave 3.14, 3.08, 2.96 (mean 3.06; controls 3 of 9).

The variant S26H+D91M gave 3.21, 2.94, ND (mean 3.07; controls 4 of 9). For R28P+D91E+S93I, the assay gave 2.96, 3.25, ND (mean 3.10; controls 2 of 9). The variant G24D+D25Q+D91G showed 3.45, 3.43, 2.89 (mean 3.26; controls 4 of 9). For E23Y+A32Q+D91W, the assay gave ND, 3.37, ND (controls 1 of 9). The variant G24F+G49T+D91E showed 3.41, 3.19, 3.53 (mean 3.38; controls 2 of 9). For P54L+D91K+F95V, the assay gave 3.54, 3.62, 3.13 (mean 3.43; controls 4 of 9). The variant E23S+L27H+D91S showed 4.29, 3.88, 2.46 (mean 3.55; controls 3 of 9). For N51F+R90M+D91R, the assay gave 3.63, 3.53, ND (mean 3.58; controls 4 of 9).

The variant G49Q+D91L+S93M showed 3.06, 4.17, ND (mean 3.61; controls 1 of 9). The variant D25G+R53S+D91I showed 3.64, 2.96, 4.28 (mean 3.63; controls 3 of 9). The variant R28F+D91R+F98H showed 3.48, 4.09, ND (mean 3.79; controls 4 of 9). The variant Y29E+G49E+D91P gave 3.84, ND, ND (controls 3 of 9). For D25E+D91L+Q96L, the assay gave 3.36, ND, 4.35 (mean 3.85; controls 3 of 9). With P54Y+D91V the result was 4.52, 4.78, 2.72 (mean 4.01; controls 4 of 9). For G24I+S55M+D91T, the assay gave 4.02, ND, ND (controls 2 of 9). The variant R28W+S55L+D91V gave 3.84, 5.35, 3.17 (mean 4.12; controls 3 of 9).

The variant L27D+D91F+V97S gave ND, ND, 4.54 (controls 4 of 9). With A32G+S89H+D91T the result was 5.31, ND, ND (controls 0 of 9). For Y30W+G49K+D91G, the assay gave ND, 5.44, ND (controls 0 of 9). The variant L27V+R28V+D91A gave ND, ND, ND (controls 0 of 9). The variant Y30T+G49H+D91L showed ND, ND, ND (controls 2 of 9). With G24E+Y30S+D91L the result was ND, ND, ND (controls 2 of 9). With N33P+D91M+V97K the result was ND, ND, ND (controls 1 of 9). The variant N33R+D91T gave ND, ND, ND (controls 1 of 9).

The first 3 entries again:

changes	log10 Kd, replicates	mean, log10 nM	control signals
Y30T+D91L+G94E	2.17, 1.82, 1.10	1.70	1 of 9
N52T+D91N+V97G	2.05, 1.98, 2.10	2.04	5 of 9
S89C+D91Y+V97F	2.20, 2.31, 1.93	2.15	4 of 9